Measurements from patent publication US9133240B2, “Compounds binding to the bacterial beta ring” (Centre National de la Recherche Scientifique, priority 2011, dated 2015).

The chains behind the UniProt entries cited, without tags or fusion partners. Where a name states a change or a piece, a line headed by the entry shows the natural chain unless it says otherwise.
UniProt P0A988: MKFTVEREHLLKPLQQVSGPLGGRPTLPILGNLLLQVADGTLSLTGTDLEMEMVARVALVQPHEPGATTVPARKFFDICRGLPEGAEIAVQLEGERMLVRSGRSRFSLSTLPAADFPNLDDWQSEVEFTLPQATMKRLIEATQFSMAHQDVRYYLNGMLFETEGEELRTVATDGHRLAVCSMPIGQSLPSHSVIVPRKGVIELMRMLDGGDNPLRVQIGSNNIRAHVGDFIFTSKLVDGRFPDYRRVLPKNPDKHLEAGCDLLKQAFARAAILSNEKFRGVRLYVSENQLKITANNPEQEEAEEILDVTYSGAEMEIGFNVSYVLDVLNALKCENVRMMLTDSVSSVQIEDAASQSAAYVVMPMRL

Target: T1, E. coli β clamp (Escherichia coli, UniProt P0A988)
T1 construct: made in house; host or cells: E. coli BL21 (β); P1 by solid-phase synthesis
Assay: SPR competition assay: inhibition of P1-β interaction by challenging peptides;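 also: SPR responses corrected for background, then fitted with a 1:1 Langmuir binding model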
Details: concentration of ligand that challenges 50% of the binding of natural peptide P1

Ac R Q Cha N L diClF [Peptide P14-4]
Ki (nM): insoluble
